{
  "source": "patent US20120129722A1",
  "about": "(DONGGUK UNIVERSITY INDUSTRY ACADEMIC COOPERATION FOUNDATION, published 2012)",
  "binders": {"B1": {"name": "human Cyclin T1 (other, UniProt O60563 1-266, looked up)", "chain": "MEGERKNNNKRWYFTREQLENSPSRRFGVDPDKELSYRQQAANLLQDMGQRLNVSQLTINTAIVYMHRFYMIQSFTQFPGNSVAPAALFLAAKVEEQPKKLEHVIKVAHTCLHPQESLPDTRSEAYLQQVQDLVILESIILQTLGFELTIDHPHTHVVKCTQLVRASKDLAQTSYFMATNSLHLTTFSLQYTPPVVACVCIHLACKWSNWEIPVSTDGKHWWEYVDATVTLELLDELTHEFLQILEKTPNRLKRIWNWRACEAAKK", "notes": "domain: cyclin box; It was immobilised in sol-gel spots on a 96-well plate"}},
  "target": "T1, human CDK9 (human)",
  "T1 construct": "It is probably nucleotide, so it is not used as a protein entry; CDK9 was used both immobilised in sol-gel spots and as the soluble reactant; also called recombinant human CDK9",
  "assay": "sol-gel protein chip (composition 3), immobilised CyclinT1, soluble CDK9 detected with anti-CDK9 and Cy3 secondary antibody, in presence of RNA aptamers",
  "data": [
    {"binder": "B1", "values": [
      {"measurement": "binding result", "value": "binds"}
    ]}
  ]
}
